PGC1a acetyl inh: PGC1a acetylation modulation, inhibitor mode; 350,000 compounds, 0.17% hits; AID 651687; inhibition, % at 15.6 µM; U2OS PGC1a acetylation, AlphaScreen anti-acetyl-lysine; with virally co-expressed GCN5 acetyltransferase;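 active = every replicate shows inhibition of at least 40%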
PglD inh: blocks C. jejuni PglD acetyltransferase activity. 360,000 compounds, 0.098% hits. inhibition, % at 12.5 µM. purified PglD enzyme, DTNB colorimetric CoA detection; in the data active = inhibition above about 16%, passing the limit was not always enough
C2C12 statin: protects C2C12 myotubes from simvastatin toxicity | ATP luminescence, 48 h; scaled: DMSO 0, geranylgeraniol control 100 | rescue of ATP level, % at 7.49 µM | 330,000 compounds, 0.78% hits | AID 602340;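 active = mean ATP rescue above about 67%, or every replicate alone reaching that limit, limit read from the data, passing the limit was not always enough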;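 note: myotubes were challenged with 10 µM simvastatin during compound exposure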
UUG fidelity: modulators of start codon recognition fidelity in yeast; AID 602363; hit rate 0.13% among 350,000; activity score, % at 18.7 µM; S. cerevisiae UUG-firefly luciferase reporter, luminescence/redox ratio;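 active = replicate mean at a twofold rise or more, about +100% in these data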;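 note: firefly luciferase made from a UUG start codon reports start codon fidelity; reporter light over untreated wells divided by growth signal over untreated wells; some hits fall short of that in this replicate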
esBAF inh: blocks esBAF chromatin remodeling in mouse ES cells; Bmi1-luciferase knock-in reporter, 24 h; 100% = twice the neutral-well signal; reporter increase, % at 12.5 µM; 350,000 compounds, 2% hits; AID 602393; in the data active = activation above about 40%;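 note: a rise in the Bmi1 reporter signal indicates esBAF inhibition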
E-sel inducer: E-selectin induction on HUVECs | activation, % at 7.58 µM | P16581 | 260,000 compounds, 0.37% hits | HUVEC E-selectin immunofluorescence imaging; normalized: neutral wells 0, TNF-alpha wells 100 | AID 686992;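 active = mean E-selectin-positive cell signal at least 10% of the positive control, reached in at least 60% of replicates, without over 20% cell loss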
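Test system – human umbilical vein endothelial cells (HUVEC), E-selectin induction · Input – 3,000 HUVEC seeded per well · Buffer or medium – EGM-2, gelatin · Compound dosing – single-point compound dose · Detection – immunofluorescence imaging · Measure – percent E-selectin-positive cells · Controls – TNF-alpha high, DMSO low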
Hits are given with their value. Most compounds without a hit are left out; they make up all but 2.8% or so of the library.

COc1ccc(NC(=O)N(C)C[C@H]2OCCCC[C@H](C)Oc3ccc(NS(=O)(=O)c4ccc(C)cc4)cc3C(=O)N([C@@H](C)CO)C[C@H]2C)cc1 was read as PGC1a acetyl inh inactive, PglD inh inactive, UUG fidelity inactive and esBAF inh inactive.
For CCCNC(=O)C[C@H]1CC[C@@H]2[C@H](COc3ccc(NC(=O)Nc4c(C)noc4C)cc3C(=O)N2C)O1 the results were PGC1a acetyl inh inactive, PglD inh inactive, C2C12 statin inactive, UUG fidelity inactive, esBAF inh inactive and E-sel inducer inactive.
Screening CCCNC(=O)C[C@@H]1C[C@@H]2c3cc(NC(=O)c4ccc5c(c4)OCO5)ccc3O[C@@H]2[C@@H](CO)O1 returned PGC1a acetyl inh inactive, PglD inh inactive, C2C12 statin inactive, UUG fidelity inactive, esBAF inh inactive and E-sel inducer inactive.
`O=[N+]([O-])c1cnccc1Nc1cccc(F)c1` gave PglD inh inactive, UUG fidelity inactive and esBAF inh inactive.
For O=[N+]([O-])c1ccc(Oc2cccc(F)c2)c2ccncc12 the results were PGC1a acetyl inh 70.6.
Screening CCCNC(=O)Nc1ccc2c(c1)C(=O)N(C)C[C@@H](OC)[C@H](C)CN(Cc1ccccn1)[C@@H](C)CO2 returned PGC1a acetyl inh inactive, PglD inh inactive, C2C12 statin inactive, esBAF inh inactive and E-sel inducer inactive.
Screening COc1ccc(NC(=O)Nc2ccc3c(c2)C(=O)N([C@H](C)CO)C[C@H](C)[C@@H](CN(C)S(=O)(=O)c2ccc(C)cc2)O3)cc1 returned PGC1a acetyl inh inactive, PglD inh inactive, C2C12 statin inactive, UUG fidelity inactive, esBAF inh inactive and E-sel inducer inactive.
`CCOc1ccccc1OCCOc1ccccc1CC` gave PGC1a acetyl inh inactive, PglD inh inactive, C2C12 statin 127.7, UUG fidelity inactive and esBAF inh inactive.
For CCOc1ccccc1OCCOc1ccccc1OC(C)C the results were PGC1a acetyl inh inactive, PglD inh inactive and UUG fidelity inactive.
Cc1noc(C)c1NC(=O)N(C)C[C@H]1Oc2ncc(C#CCN(C)C)cc2C(=O)N([C@@H](C)CO)C[C@H]1C was read as PGC1a acetyl inh inactive, PglD inh inactive, C2C12 statin inactive, UUG fidelity inactive, esBAF inh inactive and E-sel inducer inactive.
Screening O=C(NCCc1ccccc1)c1ccc(NC(=O)C2CC2)cc1 returned PGC1a acetyl inh inactive, PglD inh inactive, C2C12 statin inactive, UUG fidelity inactive, esBAF inh 45.4 and E-sel inducer inactive.
Screening CCCN1CCC(Oc2cccc(C(=O)NCCc3ccccc3)c2)CC1 returned PGC1a acetyl inh inactive, PglD inh inactive, C2C12 statin inactive, UUG fidelity inactive, esBAF inh 50.6 and E-sel inducer inactive.
For COCCNC(=O)c1cccc(OC2CCN(Cc3cccc(C(C)=O)c3)CC2)c1 the results were PglD inh inactive, C2C12 statin inactive, UUG fidelity inactive, esBAF inh inactive and E-sel inducer inactive.
`O=C(NCCCc1ccccc1)c1ccc(F)cc1` gave PGC1a acetyl inh inactive, PglD inh inactive, C2C12 statin inactive, UUG fidelity inactive and esBAF inh 64.5.
O=C(NCCCCNC(=O)c1ccc(F)cc1)c1ccc(F)cc1 was read as PGC1a acetyl inh inactive, PglD inh inactive, C2C12 statin inactive, UUG fidelity inactive and esBAF inh inactive.
O=C(NCCc1ccccc1)c1cccc(NC(=O)C2CCCC2)c1 was read as PGC1a acetyl inh inactive, PglD inh inactive, C2C12 statin inactive, UUG fidelity inactive, esBAF inh 48.0 and E-sel inducer inactive.
`O=C(NCCc1ccccc1)c1cccc(NC(=O)C2CCCCC2)c1` gave PGC1a acetyl inh inactive, PglD inh inactive, C2C12 statin inactive, UUG fidelity inactive, esBAF inh inactive and E-sel inducer inactive.
Screening CCNC(=O)[C@@H]1[C@@H](CO)[C@@H]2Cn3c(ccc(-c4cccc(C(=O)N(C)C)c4)c3=O)[C@H]1N2 returned PGC1a acetyl inh inactive and E-sel inducer inactive.
COc1cccc(-c2ccc([C@H]3[C@@H](CO)N4C(=O)CN(C(=O)C5CCCCC5)C[C@@H]34)cc2)c1 was read as PGC1a acetyl inh inactive and E-sel inducer inactive.
Screening C1CCCCCC(=NNc2nn[nH]n2)CCCCC1 returned PGC1a acetyl inh inactive, PglD inh inactive, C2C12 statin inactive, UUG fidelity inactive, esBAF inh inactive and E-sel inducer 67.3.
`C[C@H]1CN([C@@H](C)CO)C(=O)Cc2cc(NC(=O)Nc3ccc4c(c3)OCO4)ccc2O[C@H]1CN(C)C(=O)NC1CCCCC1` gave PGC1a acetyl inh inactive, PglD inh inactive, C2C12 statin inactive, UUG fidelity inactive, esBAF inh inactive and E-sel inducer inactive.
`C[C@@H]1CN([C@H](C)CO)S(=O)(=O)c2ccc(-c3ccc(C(=O)N(C)C)cc3)cc2O[C@@H]1CN(C)C(=O)C1CCC1` gave PGC1a acetyl inh inactive, PglD inh inactive, C2C12 statin inactive, esBAF inh inactive and E-sel inducer inactive.
`O=C(/C=C/c1c(F)cccc1Cl)Nc1nc2ccccc2[nH]1` gave E-sel inducer inactive.
For O=C(/C=C/c1c(F)cccc1Cl)Nc1ccncc1 the results were PGC1a acetyl inh inactive, PglD inh inactive, C2C12 statin inactive, UUG fidelity inactive and esBAF inh 61.5.
Screening O=C(/C=C/c1ccccc1Cl)Nc1ccncc1 returned PGC1a acetyl inh inactive, PglD inh inactive, C2C12 statin inactive and UUG fidelity inactive.
Screening O=C(/C=C/c1ccccc1Cl)Nc1cccnc1 returned PGC1a acetyl inh inactive, PglD inh inactive, C2C12 statin inactive, UUG fidelity inactive, esBAF inh inactive and E-sel inducer inactive.
`O=C(/C=C/c1ccc(Cl)c(Cl)c1)Nc1cccnc1` gave PglD inh inactive, C2C12 statin inactive, UUG fidelity inactive and esBAF inh 41.8.
O=C(/C=C/c1c(Cl)cccc1Cl)Nc1ccncc1 was read as PGC1a acetyl inh inactive, PglD inh inactive, C2C12 statin inactive, UUG fidelity inactive and esBAF inh 44.1.
`Cc1ccc(SCc2cc(=O)[nH]c(Nc3nc(C)c4cccc(C)c4n3)n2)cc1` gave PGC1a acetyl inh inactive, PglD inh inactive, C2C12 statin inactive, UUG fidelity inactive and esBAF inh inactive.
Screening COc1ccc2nc(Nc3nc(CSc4ccc(C)cc4)cc(=O)[nH]3)nc(C)c2c1 returned PGC1a acetyl inh inactive, PglD inh inactive, UUG fidelity inactive and esBAF inh 28.9.
`CCc1c(C)nc(N2CCN(c3ccc(F)cc3)CC2)[nH]c1=O` gave PGC1a acetyl inh inactive, PglD inh inactive, C2C12 statin inactive, UUG fidelity inactive, esBAF inh inactive and E-sel inducer inactive.
`Cc1nnc(N2CCN(c3ccccc3)CC2)[nH]c1=O` gave PGC1a acetyl inh inactive, PglD inh inactive, C2C12 statin 97.7, UUG fidelity inactive and esBAF inh inactive.
